Test results: patent US5830909A, “Angiotensin (AII) antagonists as inhibitors of the growth of adipose tissue” (American Cyanamid Company, priority 1996, dated 1998)

By UniProt entry, the sequences of proteins in these tests, tags left out. Where a name states a change or a piece, a line headed by the entry shows the natural chain unless it says otherwise.
UniProt P25095, whole entry: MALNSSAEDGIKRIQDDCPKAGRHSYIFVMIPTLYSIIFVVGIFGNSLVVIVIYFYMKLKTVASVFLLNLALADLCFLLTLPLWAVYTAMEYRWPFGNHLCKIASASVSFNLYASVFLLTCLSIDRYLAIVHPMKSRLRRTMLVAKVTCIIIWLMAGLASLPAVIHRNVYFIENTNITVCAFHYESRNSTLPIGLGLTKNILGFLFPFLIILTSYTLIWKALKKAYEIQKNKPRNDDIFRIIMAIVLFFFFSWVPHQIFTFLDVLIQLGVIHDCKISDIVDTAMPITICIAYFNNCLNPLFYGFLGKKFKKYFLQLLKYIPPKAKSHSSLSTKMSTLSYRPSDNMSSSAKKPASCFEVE
UniProt P01019: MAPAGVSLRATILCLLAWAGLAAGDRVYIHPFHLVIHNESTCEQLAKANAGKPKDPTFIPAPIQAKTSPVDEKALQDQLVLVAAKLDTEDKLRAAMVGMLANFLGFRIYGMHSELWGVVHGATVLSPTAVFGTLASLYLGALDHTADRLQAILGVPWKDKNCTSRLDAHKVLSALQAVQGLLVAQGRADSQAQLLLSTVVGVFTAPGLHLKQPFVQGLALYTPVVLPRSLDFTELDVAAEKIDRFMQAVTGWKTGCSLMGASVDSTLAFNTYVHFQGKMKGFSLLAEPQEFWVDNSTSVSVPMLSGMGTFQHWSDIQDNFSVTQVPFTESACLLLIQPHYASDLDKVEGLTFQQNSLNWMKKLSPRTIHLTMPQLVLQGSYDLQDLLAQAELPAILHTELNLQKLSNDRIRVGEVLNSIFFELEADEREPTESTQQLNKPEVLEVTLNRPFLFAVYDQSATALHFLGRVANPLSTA

Columns and labels:
AII receptor [1] = target: T1, AII receptor (Rattus norvegicus, UniProt P25095); test: Displacement of 125I[Sar,Ile]AII binding in rat epididymal fat cell membranes; settings: 1 nM radioligand, 1-4 assays, read-out: Inhibitory Constants (IC50) for displacement of 125I[Sar,Ile]AII binding, Epididymal
T1 construct: adipose tissue from the epididymal and retroperitoneal depots is quickly excised; from tissue; host or cells: membranes of collagenase-isolated adipocytes from epididymal and retroperitoneal fat of male Sprague-Dawley rats
Source text: (§1) The experimental design involves determining the binding characteristics of adipocyte membranes harvested from two different anatomic sites at three different ages. Male Sprague-Dawley rats (Charles River Laboratories, Wilmington, Mass.) are used at 40, 70 and 100 days of age. Rats are killed by carbon dioxide inhalation on the morning of the experiment, and adipose tissue from the epididymal and retroperitoneal depots is quickly excised and placed in cold saline. The spermatic artery and vein are removed from the epididymal fat, and brown fat deposits are dissected away from the retroperitoneal depot. […] Protein content of the high speed pellet is determined, the resuspended protein is either assayed immediately or stored at -75° before binding assays are performed. […] Separation of bound from free radioactivity is achieved using any appropriate filtration apparatus. […] The filters are placed in tubes, and radioactivity measured in a gamma scintillation counter programmed to correct for the half-life of the isotope. Using this experimental protocol, both the affinity (KD) and number of binding sites (Bmax) for angiotensin II on the adipocyte membrane can be calculated. The relative affinities of different anatomically distinct adipocyte membranes for a variety of peptide and nonpeptide antagonists can also be determined. […]

AII receptor [2] = target: T1, AII receptor; test: Displacement of 125I[Sar,Ile]AII binding in rat retroperitoneal fat cell membranes; settings: 1 nM radioligand, 1-4 assays, read-out: Inhibitory Constants (IC50) for displacement of 125I[Sar,Ile]AII binding, Retroperitoneal
Source text: as §1

Which IC50 (AII receptor [1]) does the source give for “AIII: peptide ligand listed in Table 5 (RVYIHPF; Angiotensin-3; UniProt P01019 26-32, looked up) [reference compound]” here?
Its IC50 is 22.3 nM.

And the IC50 (AII receptor [2])?
Its IC50 is 18.5 nM.
